The list shows a part of the results, in another mix than the full data.
The molecules below were run on Staphylococcus aureus Sa2 (MRSA, cystic fibrosis isolate) (assay: growth reduction vs untreated control (viable cell count); higher = stronger antibacterial activity; extreme values may be limits of the assay). Settings: 0.1 mM; 24 h.
Description: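 Single-dose screen of the MedChem Express Drug Repurposing Library (0.1 mM, 1% DMSO) against planktonic MRSA S. aureus Sa2 (CF isolate) in TSB in 96-well plates, 37 °C aerobic, 24 h. Growth reduction is relative to the untreated inoculated control: OD550 of supernatant (blank-subtracted) and confirmation by viable CFU count. Assays were run in triplicate and repeated twice.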
For `COc1cc(Br)c(C[N+]2(CCOCCC3CCC4CC3C4(C)C)CCOCC2)cc1OC` (stereo unspecified) [Pinaverium bromide], the growth reduction was 100%.

Reference: the supplement of paper PMC12024424
